Results from ChEMBL document CHEMBL4823256, “Prodrugs of a 1'-CN-4-Aza-7,9-dideazaadenosine C-Nucleoside Leading to the Discovery of Remdesivir (GS-5734) as a Potent Inhibitor of Respiratory Syncytial Virus with Efficacy in the African Green Monkey Model of RSV” (J Med Chem, 2021).

Assay: in vitro
Details: human, HEp-2 cells, Ratio CC50/EC50

Structure (SMILES)	selectivity ratio
CCC(CC)COC(=O)[C@H](C)N[P@@](=O)(OC[C@H]1O[C@@](C#N)(c2ccc3c(N)ncnn23)[C@H](O)[C@@H]1O)Oc1ccccc1	929
CCC(CC)COC(=O)[C@H](C)N[P@](=O)(OC[C@H]1O[C@@](C#N)(c2ccc3c(N)ncnn23)[C@H](O)[C@@H]1O)Oc1ccccc1 (stereo in doubt; 18j)	341
